Measurements as given in US3984415A, “1-Nitrophenylpyrido [2,3-d] pyrimidine-2,4(1H,3H)-diones” (Hisamitsu Pharmaceutical Co., Inc., priority 1973, dated 1976).

System: dd-strain male mice
Conditions: i.p., 72 hours

## Cc1ccccc1-n1c(C)nc2ccccc2c1=O [methaqualone, reference compound]
  acute toxicity (lethal dose): 300 to 1000 mg/kg
